# Assay results: publication PMC8882856
# Amino acid sequences for entries named in this document (tags omitted).
# UniProt P08913, whole entry: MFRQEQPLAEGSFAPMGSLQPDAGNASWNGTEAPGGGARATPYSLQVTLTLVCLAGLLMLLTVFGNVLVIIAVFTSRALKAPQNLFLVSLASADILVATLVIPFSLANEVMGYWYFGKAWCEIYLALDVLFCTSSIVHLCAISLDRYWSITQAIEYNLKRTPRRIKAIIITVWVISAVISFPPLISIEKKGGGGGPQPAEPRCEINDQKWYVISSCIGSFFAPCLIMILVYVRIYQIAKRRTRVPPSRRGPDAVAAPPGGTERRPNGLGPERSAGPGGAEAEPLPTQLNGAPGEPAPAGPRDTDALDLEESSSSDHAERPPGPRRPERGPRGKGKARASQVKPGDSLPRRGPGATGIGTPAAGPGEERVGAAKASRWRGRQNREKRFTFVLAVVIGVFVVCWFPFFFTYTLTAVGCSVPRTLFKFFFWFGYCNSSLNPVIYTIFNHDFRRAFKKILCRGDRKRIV
# UniProt P18089, whole entry: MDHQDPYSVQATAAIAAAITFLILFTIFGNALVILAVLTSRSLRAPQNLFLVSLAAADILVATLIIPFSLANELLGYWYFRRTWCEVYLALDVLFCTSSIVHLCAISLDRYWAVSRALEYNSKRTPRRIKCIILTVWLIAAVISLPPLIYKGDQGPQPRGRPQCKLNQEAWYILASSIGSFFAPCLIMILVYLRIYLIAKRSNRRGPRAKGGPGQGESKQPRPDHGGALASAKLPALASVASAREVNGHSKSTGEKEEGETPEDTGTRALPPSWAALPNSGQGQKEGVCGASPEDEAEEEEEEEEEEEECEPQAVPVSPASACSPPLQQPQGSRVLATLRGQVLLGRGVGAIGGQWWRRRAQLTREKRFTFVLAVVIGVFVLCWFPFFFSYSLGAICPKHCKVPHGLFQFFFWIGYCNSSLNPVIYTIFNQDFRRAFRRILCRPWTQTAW
# UniProt P18825, whole entry: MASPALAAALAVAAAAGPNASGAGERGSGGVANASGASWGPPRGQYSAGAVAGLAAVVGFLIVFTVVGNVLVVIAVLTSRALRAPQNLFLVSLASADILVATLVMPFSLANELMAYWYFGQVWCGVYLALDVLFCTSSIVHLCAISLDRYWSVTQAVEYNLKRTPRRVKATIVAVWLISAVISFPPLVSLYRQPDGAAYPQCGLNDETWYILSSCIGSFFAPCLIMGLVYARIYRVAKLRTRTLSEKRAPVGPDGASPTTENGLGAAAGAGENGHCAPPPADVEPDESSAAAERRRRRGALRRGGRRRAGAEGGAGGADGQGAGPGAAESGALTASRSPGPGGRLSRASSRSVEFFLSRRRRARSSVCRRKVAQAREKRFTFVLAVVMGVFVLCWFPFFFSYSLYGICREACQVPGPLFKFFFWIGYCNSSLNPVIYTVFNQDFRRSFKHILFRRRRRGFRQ
# Read-outs that look alike come from different tables or passages of the source.
# Tests used:
# human α2A‐adrenoceptor [1] = target: T1, human α2A‐adrenoceptor (Homo sapiens, UniProt P08913)
# human α2B‐adrenoceptor [2] = target: T2, human α2B‐adrenoceptor (Homo sapiens, UniProt P18089); assay: ^3H‐rauwolscine whole cell competition binding, CHO‐α2B cells
# human α2C‐adrenoceptor [3] = target: T3, human α2C‐adrenoceptor (Homo sapiens, UniProt P18825); assay: ^3H‐rauwolscine whole cell competition binding, CHO‐α2C cells
# human α2A‐adrenoceptor [4] = target: T1, human α2A‐adrenoceptor; assay: cell-based
# human α2B‐adrenoceptor [5] = target: T2, human α2B‐adrenoceptor; assay: cell-based
# human β2‐adrenoceptor = human β2‐adrenoceptor (Homo sapiens, UniProt P07550)
# human α1A‐adrenoceptor = assay: whole cell binding at α1A‐adrenoceptor, identical technique, previous study [33]
# human α2C‐adrenoceptor [6] = target: T3, human α2C‐adrenoceptor; assay: cell-based
smiles,measurement,setting,value
COc1cccc2c1CCC[C@H]2CN(C)CCc1ccc2ccoc2c1.CS(=O)(=O)O [A80426],Kd,human α2A‐adrenoceptor [1],57.5 nM
COC(=O)C1=C(C)NC(C)=C(C(=O)NCCCN2CCC(c3ccccc3)(c3ccccc3)CC2)C1c1ccc([N+](=O)[O-])cc1 (centres unmarked) [SNAP5089],IC50,human α2B‐adrenoceptor [2],> 10000 nM
same,Kd,human α2C‐adrenoceptor [3],2240 nM
O=C1NCCN1CCN1CCC(c2cn(-c3ccc(F)cc3)c3ccc(Cl)cc23)CC1 [sertindole],Kd,human α2A‐adrenoceptor [4],1120 nM
same,Kd,human α2B‐adrenoceptor [5],1550 nM
same,IC50,human β2‐adrenoceptor,> 10000 nM
C[C@H](Cc1cc2c(c(C(N)=O)c1)N(CCCO)CC2)NCCOc1ccccc1OCC(F)(F)F [silodosin],α1A selectivity over α2 or β1 or β2‐adrenoceptors,human α1A‐adrenoceptor,> 500
same,α1A selectivity window compared to the other adrenoceptors,human α1A‐adrenoceptor,> 100 fold
same,Selectivity ratio α2A vs α2C (higher affinity for α2C),human α2C‐adrenoceptor [3],4.3
O=C1NCN(c2ccccc2)C12CCN(CC1COc3ccccc3O1)CC2 (centres unmarked) [spiroxatrine],Kd,human α2B‐adrenoceptor [5],13.5 nM
CC(CN(C)C)CN1c2ccccc2CCc2ccccc21 (centres unmarked) [trimipramine],IC50,human β2‐adrenoceptor,> 100000 nM
COc1ccccc1N1CCN(CCCNc2cc(=O)n(C)c(=O)n2C)CC1 [urapidil],Kd,human α2B‐adrenoceptor [5],1660 nM
same,Kd,human α2C‐adrenoceptor [6],457 nM
O=C1Cc2cc(CCN3CCN(c4nsc5ccccc45)CC3)c(Cl)cc2N1 [ziprasidone],Kd,human α2A‐adrenoceptor [4],437 nM
